The target of experiment [1] is T1, rat NPRA (Rattus norvegicus, UniProt P18910).
T1 construct: Full-Length cDNA Cloning and Generation of Cell Lines Overexpressing Natriuretic Peptide Receptors (NPRs); expressed in transfected cells; host or cells: Jump-in T-Rex HEK293 cells, pJTI R4 CMV-TO MCS pA vector, tetracycline induction
T1 sequence (P18910 29-1057): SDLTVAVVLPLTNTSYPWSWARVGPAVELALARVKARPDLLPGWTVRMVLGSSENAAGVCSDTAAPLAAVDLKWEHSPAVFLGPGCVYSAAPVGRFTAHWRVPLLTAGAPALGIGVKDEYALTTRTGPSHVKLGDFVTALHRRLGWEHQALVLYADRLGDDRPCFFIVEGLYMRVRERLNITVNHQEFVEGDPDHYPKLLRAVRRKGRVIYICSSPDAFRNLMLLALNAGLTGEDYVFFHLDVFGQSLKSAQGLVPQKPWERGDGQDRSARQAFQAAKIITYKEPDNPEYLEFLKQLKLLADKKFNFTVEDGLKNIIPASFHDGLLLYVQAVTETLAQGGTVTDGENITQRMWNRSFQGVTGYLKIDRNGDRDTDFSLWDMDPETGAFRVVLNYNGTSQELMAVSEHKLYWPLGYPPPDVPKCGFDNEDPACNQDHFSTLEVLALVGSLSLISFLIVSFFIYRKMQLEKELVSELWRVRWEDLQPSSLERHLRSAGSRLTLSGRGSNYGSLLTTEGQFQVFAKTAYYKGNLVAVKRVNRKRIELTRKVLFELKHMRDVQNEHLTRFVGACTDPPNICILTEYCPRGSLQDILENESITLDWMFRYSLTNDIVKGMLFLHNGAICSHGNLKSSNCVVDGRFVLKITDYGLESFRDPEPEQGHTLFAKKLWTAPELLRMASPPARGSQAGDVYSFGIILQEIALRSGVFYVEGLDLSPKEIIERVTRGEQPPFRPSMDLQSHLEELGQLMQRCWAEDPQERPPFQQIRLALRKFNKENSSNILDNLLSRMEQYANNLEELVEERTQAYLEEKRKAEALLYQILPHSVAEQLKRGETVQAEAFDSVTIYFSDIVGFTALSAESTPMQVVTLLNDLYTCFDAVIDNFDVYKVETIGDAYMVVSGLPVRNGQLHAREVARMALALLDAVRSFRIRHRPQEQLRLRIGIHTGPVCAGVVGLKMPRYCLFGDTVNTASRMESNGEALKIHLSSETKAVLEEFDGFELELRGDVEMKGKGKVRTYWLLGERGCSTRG
The experiment can be described thus: Rat NPRA cGMP activity assay (HTRF) in HEK293 cells overexpressing NPRA. The class given is cell-based. As to conditions: cGMP Assay (EC50, pM) w/Casein rNPRA, assay buffer with 0.1% casein. The method, then:
All sequences were verified by full-length sequencing performed by ACGT DNA Sequencing Services (Wheeling, IL). The target cDNA was cloned into pJTI R4 CMV-TO MCS pA vector and then co-transfected with pJT1R4 Int vector into Jump-in™ T-Rex™ HEK293 cells for mammalian inducible expression using Jump-in™ T-Rex™ HEK293 kit and Lipofectamine LTX and Plus Reagent following manufacturer's protocols, as briefly described below.
Jump-in™ T-Rex™ HEK293 cells were plated in a BioCOAT® poly-D-lysine coated 6-well plate (Becton Dickinson, cat no. 354413) at 1 million cells/well in 2 mL culture medium and incubated for 18 h at 37° C. and 5% CO2 to 50-70% confluence. A cDNA mix was made in a 50 mL tube by adding 1.5 μg target cDNA, 1.5 μg pJT1R4 Int vector, 3 μL Plus Reagent, and 300 μL Opti-MEM I sequentially into the tube. A reagent mix was made in a separate 50 mL tube by adding 7.5 μL Lipofectamine LTX into 300 μL Opti-MEM I. The mixtures were incubated for 5 min at room temperature. The cDNA mix was then transferred into the reagent mix, mixed well, and incubated for additional 30 min at room temperature. A 500 μL of cDNA/Lipofectamine complex was then transferred to the wells of the cell plate in which the culture medium was changed to 2 mL of transfection medium containing DMEM with 4.5 g/L D-glucose supplemented with 10% FBS-HI and 20 mM HEPES. Transfected cells were cultured for 48 h in an incubator at 37° C. and 5% CO2. A subclone or pool from each overexpressing cell line was maintained in culture medium with the addition of 2 mg/mL G418 sulfate for the clone selection based on its built-in resistance to G418 sulfate for at least 3 weeks with medium changed every 2-3 days.
NPRs were overexpressed in T-Rex™ HEK293 cells following the induction with 300 ng/mL tetracycline in culture medium for 48 h. Induced cell lines in an exponential growth phase were treated with 0.05% trypsin-EDTA for a few seconds at room temperature, harvested in cell medium containing FBS to neutralize the trypsin, counted, and cryopreserved at the density of 2 million cells/mL in cell preservation solution containing FBS-HI with 5% DMSO. Cryopreserved cells were stored at −80° C. for a few days prior to transferring to a liquid nitrogen tank. Induced cell lines were then used for suspension assays to measure the activity of polypeptides to stimulate cGMP production in cGMP assays or for the preparation of cell membranes to measure the binding activity of polypeptides in competitive radioligand binding assays, as described below.
Test polypeptides were added starting at 10 μM concentration and at 10-fold decreasing concentrations to obtain 8-point concentration-response curves (i.e., 10 μM to 1 pM). The quantity of cGMP generated was detected using HTRF® technology and normalized to maximum amount produced by 100 nM amidated rat ANP and the minimum amount produced by assay buffer. Detailed steps are outlined below.
Stock solutions of test polypeptides (2 mM) dissolved in DMSO were first diluted 100-fold in assay buffer containing HBSS with Ca^2+ and Mg^2+, 5 mM HEPES, 0.5 mM IBMX, and 0.1% BSA or 0.1% casein (pH 7.4). The polypeptides were further serially diluted in 1:10 dilution steps in assay buffer containing 0.1% BSA or 0.1% casein to generate 8-point 2× working stock solutions ranging from 20 μM to […].
A 10 μL cell suspension containing 4000 cells was plated in Costar® half-area white opaque 96-well plates (Corning, cat no. 3693). Then 10 μL of assay buffer (basal activity), 200 nM of amidated rat ANP (maximum activity) or 2× working stock solutions of test polypeptides were transferred into the plate. Final concentration of DMSO in each well was 0.5%. The plate was shaken for 15 sec and then incubated for 40 min at room temperature.
The cGMP generated was measured using cGMP kit following the manufacturer's directions, as described below.

Experiment [2] concerns the target T2, human NPRA (Homo sapiens, UniProt P16066).
T2 construct: Full-Length cDNA Cloning and Generation of Cell Lines Overexpressing Natriuretic Peptide Receptors (NPRs); expressed in transfected cells; host or cells: Jump-in T-Rex HEK293 cells, pJTI R4 CMV-TO MCS pA vector, tetracycline induction
T2 sequence (P16066 33-1061): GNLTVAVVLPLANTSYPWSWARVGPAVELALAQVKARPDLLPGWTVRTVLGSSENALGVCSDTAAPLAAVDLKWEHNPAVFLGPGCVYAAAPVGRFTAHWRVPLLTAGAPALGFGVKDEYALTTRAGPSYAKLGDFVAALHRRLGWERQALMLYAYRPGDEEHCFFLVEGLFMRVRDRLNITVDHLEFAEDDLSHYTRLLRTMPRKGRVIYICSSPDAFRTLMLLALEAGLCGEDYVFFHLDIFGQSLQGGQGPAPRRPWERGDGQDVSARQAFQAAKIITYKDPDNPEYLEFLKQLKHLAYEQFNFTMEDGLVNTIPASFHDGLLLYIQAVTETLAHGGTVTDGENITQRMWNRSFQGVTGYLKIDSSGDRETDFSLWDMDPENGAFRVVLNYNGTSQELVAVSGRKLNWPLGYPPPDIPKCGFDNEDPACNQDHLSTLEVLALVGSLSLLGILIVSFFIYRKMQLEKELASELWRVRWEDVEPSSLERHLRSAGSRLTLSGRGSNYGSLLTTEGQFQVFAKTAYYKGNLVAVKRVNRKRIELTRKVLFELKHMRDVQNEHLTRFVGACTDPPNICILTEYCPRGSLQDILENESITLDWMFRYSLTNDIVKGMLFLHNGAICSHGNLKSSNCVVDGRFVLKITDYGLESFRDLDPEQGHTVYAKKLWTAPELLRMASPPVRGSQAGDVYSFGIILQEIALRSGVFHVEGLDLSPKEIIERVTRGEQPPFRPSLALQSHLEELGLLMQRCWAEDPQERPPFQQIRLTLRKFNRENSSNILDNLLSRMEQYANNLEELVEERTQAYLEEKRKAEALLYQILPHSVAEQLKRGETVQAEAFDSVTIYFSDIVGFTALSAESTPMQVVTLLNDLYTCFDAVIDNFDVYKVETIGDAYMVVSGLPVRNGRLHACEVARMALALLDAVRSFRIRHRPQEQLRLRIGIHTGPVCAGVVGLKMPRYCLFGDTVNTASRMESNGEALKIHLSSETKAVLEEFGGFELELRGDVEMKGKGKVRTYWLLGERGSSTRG
As to the kind of experiment: Human NPRA cGMP activity assay (HTRF) in HEK293 cells overexpressing NPRA. The class given is cell-based. As to conditions: cGMP Assay (EC50, pM) w/Casein hNPRA, assay buffer with 0.1% casein. A digest of the protocol:
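cGMP measured by HTRF and scaled between buffer (minimum) and 100 nM amidated rat ANP (maximum). Polypeptides in 10-fold steps from 10 μM to 1 pM, 0.5% DMSO, 0.5 mM IBMX, 40 min at room temperature, on induced NPRA-overexpressing HEK293 cells.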
On the technique in general: In TR-FRET formats the signal depends on donor and acceptor labels being close together.

The EC50 is the midpoint of the concentration-response curve. Lower therefore signals an effect from little substance.

Each structure is given as a SMILES string.

Regarding `CC[C@H](C)[C@@H]1NC(=O)[C@H](CCCNC(=N)N)NC(=O)[C@H](CC(=O)O)NC(=O)[C@H]([C@@H](C)CC)NC(=O)[C@H](CCCNC(=N)N)NC(=O)[C@H](CCCCN)NC(=O)CNC(=O)[C@H](Cc2ccccc2)NC(=O)[C@@H](NC(=O)[C@H](CO)NC(=O)[C@H](CO)NC(=O)[C@H](CCCNC(=N)N)NC(=O)[C@@H]2CCCN2C(=O)[C@H](CCCCN)NC(=O)[C@H](CCC(=O)O)NC(=O)CNC(=O)[C@H](CCCCN)NC(=O)[C@H](CCC(=O)O)NC(=O)[C@H](CCCCN)NC(=O)[C@H](CCC(=O)O)NC(=O)[C@H](CCCCN)NC(=O)[C@H](CCC(=O)O)NC(=O)CC[C@H](NC(=O)CCCCCCCCCCCCCCCCCCC(=O)O)C(=O)O)CSCSC[C@@H](C(=O)N2CCC[C@H]2C(=O)N[C@@H](CO)C(=O)N[C@@H](Cc2ccccc2)C(=O)N[C@@H](CCCNC(=N)N)C(=O)N[C@@H](Cc2c[nH]cn2)C(=O)NCC(=O)N[C@@H](CO)C(=O)N2CCC[C@H]2C(=O)N[C@@H](CO)C(=O)N[C@@H](CO)C(=O)NCC(=O)N[C@@H](C)C(=O)N2CCC[C@H]2C(=O)N2CCC[C@H]2C(=O)N2CCC[C@H]2C(=O)N[C@@H](CO)C(N)=O)NC(=O)CNC(=O)[C@H](CC(C)C)NC(=O)CNC(=O)[C@H](CO)NC(=O)[C@H](CCC(N)=O)NC(=O)[C@H](CCCN)NC(=O)CNC1=O` [Example 134], the EC50 in experiment [1] is 192000 pM.
In experiment [1], `CC[C@H](C)[C@@H]1NC(=O)[C@H](CCCNC(=N)N)NC(=O)[C@H](CC(=O)O)NC(=O)[C@H]([C@@H](C)CC)NC(=O)[C@H](CCCCN)NC(=O)CNC(=O)CNC(=O)[C@H](Cc2ccccc2)NC(=O)[C@@H](NC(=O)[C@H](CO)NC(=O)[C@H](CO)NC(=O)[C@H](CCCNC(=N)N)NC(=O)[C@H](CCCCN)NC(=O)[C@H](Cc2ccncc2)NC(=O)[C@H](CO)NC(=O)CNC(=O)[C@H](CCCCN)NC(=O)[C@H](CCC(=O)O)NC(=O)[C@H](CCCCN)NC(=O)[C@H](CCC(=O)O)NC(=O)[C@H](CCCCN)NC(=O)[C@H](CCC(=O)O)NC(=O)CC[C@H](NC(=O)CCCCCCCCCCCCCCCCCCC(=O)O)C(=O)O)CSSC[C@@H](C(=O)N2CCC[C@H]2C(=O)N[C@@H](CO)C(=O)N[C@@H](Cc2ccccc2)C(=O)N[C@@H](CCCNC(=N)N)C(=O)N[C@@H](Cc2c[nH]cn2)C(=O)NCC(=O)NCC(=O)N2CCC[C@H]2C(=O)N[C@@H](CO)C(=O)N[C@@H](CO)C(=O)NCC(=O)N[C@@H](C)C(=O)N2CCC[C@H]2C(=O)N2CCC[C@H]2C(=O)N2CCC[C@H]2C(=O)N[C@@H](CO)C(N)=O)NC(=O)CNC(=O)[C@H](CC(C)C)NC(=O)CNC(=O)[C@H](CO)NC(=O)[C@H](CCC(N)=O)NC(=O)[C@H](CN)NC(=O)CNC1=O` [Example 31] displayed an EC50 of 12200 pM.
Consider `CC[C@H](C)[C@@H]1NC(=O)[C@H](CCCNC(=N)N)NC(=O)[C@H](CC(=O)O)NC(=O)[C@H]([C@@H](C)CC)NC(=O)[C@H](CCCCN)NC(=O)CNC(=O)CNC(=O)[C@H](Cc2ccccc2)NC(=O)[C@@H](NC(=O)[C@H](CO)NC(=O)[C@H](CO)NC(=O)[C@H](CCCNC(=N)N)NC(=O)[C@H](CCCNC(=N)N)NC(=O)[C@H](Cc2ccncc2)NC(=O)[C@H](CO)NC(=O)CNC(=O)[C@H](CCCCN)NC(=O)[C@H](CCC(=O)O)NC(=O)[C@H](CCCCN)NC(=O)[C@H](CCC(=O)O)NC(=O)[C@H](CCCCN)NC(=O)[C@H](CCC(=O)O)NC(=O)CC[C@H](NC(=O)CCCCCCCCCCCCCCCCCCC(=O)O)C(=O)O)CSSC[C@@H](C(=O)N2CCC[C@H]2C(=O)N[C@@H](CO)C(=O)N[C@@H](Cc2ccccc2)C(=O)N[C@@H](CCCNC(=N)N)C(=O)N[C@@H](Cc2c[nH]cn2)C(=O)NCC(=O)NCC(=O)N2CCC[C@H]2C(=O)N[C@@H](CO)C(=O)N[C@@H](CO)C(=O)NCC(=O)N[C@@H](C)C(=O)N2CCC[C@H]2C(=O)N2CCC[C@H]2C(=O)N2CCC[C@H]2C(=O)N[C@@H](CO)C(N)=O)NC(=O)CNC(=O)[C@H](CC(C)C)NC(=O)CNC(=O)[C@H](CO)NC(=O)[C@H](CCC(N)=O)NC(=O)[C@H](Cc2c[nH]cn2)NC(=O)CNC1=O` [Example 36], for which the EC50 in experiment [2] was determined as 118 pM.

Values taken from patent US20240174727A1, “LONG-ACTING NATRIURETIC PEPTIDES AND USES THEREOF” (Eli Lilly and Company, priority 2022, published 2024).
